# From patent US12275953B2, “Methods for screening host cells expressing target proteins” (Industrial Technology Research Institute, priority 2020, dated 2025)
# System: SKBR3 breast cancer cells rich in HER2 antigen
# Assay: ADCC biological activity reporter gene assay (Jurkat-hFcγRIIIa-NFAT effector cells, luciferase)
# Format: cell-based
# Conditions: compared with the validated purified Anti-HER2 IgG1 (h4D5) recombinant antibody protein; 24 hours of reaction
# Protocol: In order to verify that the Anti-HER2 IgG1 (h4D5) antibody produced by the expression vector is a functional antibody, an analysis test was performed with antibody-dependent cell-mediated cytotoxicity (ADCC).
# Jurkat-hFcγRIIIa-NFAT gene transgenic cells was used as effector cells and SKBR3 breast cancer cells rich in HER2 antigen was used as target cells in ADCC biological activity reporter gene detection system (Promega, #G9790). In addition, the ADCC biological activity detection of anti-HER2 monoclonal antibody, Anti-HER2 IgG1, was carried out by luminescent luciferase detection system (BioGlo™ Luciferase Assay system).
# For the cell line C8 obtained by screening in Example 11 (the expression vector pcDNA3.1-CMV-GOI1-furin-p2A-GOI2-IRES-cgFth1 (V3) was used), the recombinant antibodies produced under the conditions of adding iron ions (250 Anti-HER2 IgG1_V3_C8-FAC-250 μM FAC+) and without adding iron ions (Anti-HER2 IgG1_V3_C8) during the screening process were tested. The recombinant antibody (Anti-HER2 IgG1_V2) produced by the expression vector pBudCE4.1-CMV-GOI1-cgFth1-SV40/EF1α-GOI2(V2) was also evaluated. […]
substance,measurement,value
Anti-HER2 IgG1_V3_C8-FAC-250 μM FAC+: Anti-HER2 IgG1 (h4D5) recombinant antibody from cell line C8 (V3 vector) produced with iron ions added (250 μM FAC),ADCC effect,had the same effect
